The target in one assay is Histone deacetylase 4 (Homo sapiens, UniProt P56524).
In another assay the target is T1, Histone deacetylase 6 (Homo sapiens, UniProt Q9UBN7).
T1 sequence (Q9UBN7 whole entry): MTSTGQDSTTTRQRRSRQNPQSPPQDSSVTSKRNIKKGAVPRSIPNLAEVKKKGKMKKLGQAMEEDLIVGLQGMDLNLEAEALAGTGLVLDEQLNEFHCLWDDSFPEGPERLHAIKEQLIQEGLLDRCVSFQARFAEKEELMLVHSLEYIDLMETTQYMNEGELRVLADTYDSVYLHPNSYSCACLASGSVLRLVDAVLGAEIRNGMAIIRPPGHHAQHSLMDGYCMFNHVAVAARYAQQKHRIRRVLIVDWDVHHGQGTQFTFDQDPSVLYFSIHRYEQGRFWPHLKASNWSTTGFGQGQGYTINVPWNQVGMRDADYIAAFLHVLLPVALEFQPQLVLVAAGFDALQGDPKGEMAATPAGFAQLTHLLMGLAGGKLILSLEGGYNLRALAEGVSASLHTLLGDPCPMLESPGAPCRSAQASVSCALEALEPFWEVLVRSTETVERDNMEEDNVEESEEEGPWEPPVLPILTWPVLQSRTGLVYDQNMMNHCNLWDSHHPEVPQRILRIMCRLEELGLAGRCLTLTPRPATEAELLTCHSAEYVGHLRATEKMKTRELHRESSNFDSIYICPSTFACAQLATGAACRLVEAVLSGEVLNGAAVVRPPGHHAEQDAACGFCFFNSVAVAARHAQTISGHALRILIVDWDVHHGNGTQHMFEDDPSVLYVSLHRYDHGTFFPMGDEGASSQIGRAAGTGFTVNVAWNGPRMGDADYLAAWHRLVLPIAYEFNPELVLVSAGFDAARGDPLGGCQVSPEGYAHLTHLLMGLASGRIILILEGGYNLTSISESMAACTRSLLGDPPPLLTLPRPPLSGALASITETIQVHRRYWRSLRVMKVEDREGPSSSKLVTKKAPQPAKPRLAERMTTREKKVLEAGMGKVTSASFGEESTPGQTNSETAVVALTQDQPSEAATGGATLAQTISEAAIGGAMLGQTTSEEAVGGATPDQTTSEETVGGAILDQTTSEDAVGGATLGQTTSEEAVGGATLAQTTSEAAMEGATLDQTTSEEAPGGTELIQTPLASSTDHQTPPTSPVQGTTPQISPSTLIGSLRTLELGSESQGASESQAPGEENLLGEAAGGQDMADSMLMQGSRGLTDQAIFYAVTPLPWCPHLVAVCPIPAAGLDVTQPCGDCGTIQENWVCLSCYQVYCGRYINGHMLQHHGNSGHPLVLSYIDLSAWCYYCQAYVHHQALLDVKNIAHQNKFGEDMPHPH

Sequences of proteins named here, by UniProt entry; tags and fusion partners are left off. A change or cut given only in a name is not applied to a line headed by its entry.
UniProt P56524: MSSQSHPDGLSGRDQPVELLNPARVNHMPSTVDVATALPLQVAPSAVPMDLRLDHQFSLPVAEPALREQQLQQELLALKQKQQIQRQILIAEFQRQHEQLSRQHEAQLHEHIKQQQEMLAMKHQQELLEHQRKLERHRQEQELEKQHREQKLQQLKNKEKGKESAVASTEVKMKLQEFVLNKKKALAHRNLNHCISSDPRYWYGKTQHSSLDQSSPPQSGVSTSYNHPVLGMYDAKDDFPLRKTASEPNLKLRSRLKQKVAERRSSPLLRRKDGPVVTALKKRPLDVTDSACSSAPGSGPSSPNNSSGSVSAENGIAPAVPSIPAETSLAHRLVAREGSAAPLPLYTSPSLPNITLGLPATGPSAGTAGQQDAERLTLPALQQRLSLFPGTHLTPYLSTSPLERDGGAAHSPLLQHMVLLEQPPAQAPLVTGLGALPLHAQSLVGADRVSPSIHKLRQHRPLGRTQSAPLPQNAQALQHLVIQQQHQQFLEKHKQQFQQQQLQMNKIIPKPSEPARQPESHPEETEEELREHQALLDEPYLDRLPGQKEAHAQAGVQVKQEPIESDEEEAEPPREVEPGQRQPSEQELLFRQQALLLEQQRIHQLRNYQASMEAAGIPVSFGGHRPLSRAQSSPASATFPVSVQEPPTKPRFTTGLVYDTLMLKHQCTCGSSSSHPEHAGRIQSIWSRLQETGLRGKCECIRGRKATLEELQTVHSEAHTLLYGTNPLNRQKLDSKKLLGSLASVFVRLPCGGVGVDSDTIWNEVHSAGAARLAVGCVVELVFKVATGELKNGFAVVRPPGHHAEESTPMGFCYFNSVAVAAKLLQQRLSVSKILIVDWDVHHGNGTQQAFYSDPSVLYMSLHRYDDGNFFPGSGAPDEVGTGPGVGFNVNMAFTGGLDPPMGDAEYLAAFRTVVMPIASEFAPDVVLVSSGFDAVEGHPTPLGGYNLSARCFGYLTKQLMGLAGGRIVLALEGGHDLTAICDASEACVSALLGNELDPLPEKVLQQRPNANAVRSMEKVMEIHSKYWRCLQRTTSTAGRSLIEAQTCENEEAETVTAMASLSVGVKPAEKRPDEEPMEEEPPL

This note sets out measurements from BindingDB's records for doi:10.1021/acschembio.6b00776 (Wayne State University, 2017).

Turning to `CN1CCc2c(c3ccccc3n2Cc2ccc(C(=O)NO)cc2)C1`, the IC50 (in general, the midpoint of a concentration-inhibition curve) against Histone deacetylase 4 is > 30 µM.

With `CC(=O)Nc1ccc(C(=O)Nc2cc(-c3cccs3)ccc2N)cc1` [N-[2-amino-5-(thiophen-2-yl)phenyl]-4-acetamidobenzamide], the IC50 at Histone deacetylase 6 is > 10 µM.
